{"source": "paper PMC10154247", "about": "“Complex regulation in a Comamonas platform for diverse aromatic carbon metabolism” (Nature Chemical Biology, 2023)", "molecular_target": "T1, ME-2 (Comamonas testosteroni, UniProt B7X1D4)", "T1 construct": "gene CtesDRAFT_PD5092", "T1 sequence (B7X1D4 2-769)": "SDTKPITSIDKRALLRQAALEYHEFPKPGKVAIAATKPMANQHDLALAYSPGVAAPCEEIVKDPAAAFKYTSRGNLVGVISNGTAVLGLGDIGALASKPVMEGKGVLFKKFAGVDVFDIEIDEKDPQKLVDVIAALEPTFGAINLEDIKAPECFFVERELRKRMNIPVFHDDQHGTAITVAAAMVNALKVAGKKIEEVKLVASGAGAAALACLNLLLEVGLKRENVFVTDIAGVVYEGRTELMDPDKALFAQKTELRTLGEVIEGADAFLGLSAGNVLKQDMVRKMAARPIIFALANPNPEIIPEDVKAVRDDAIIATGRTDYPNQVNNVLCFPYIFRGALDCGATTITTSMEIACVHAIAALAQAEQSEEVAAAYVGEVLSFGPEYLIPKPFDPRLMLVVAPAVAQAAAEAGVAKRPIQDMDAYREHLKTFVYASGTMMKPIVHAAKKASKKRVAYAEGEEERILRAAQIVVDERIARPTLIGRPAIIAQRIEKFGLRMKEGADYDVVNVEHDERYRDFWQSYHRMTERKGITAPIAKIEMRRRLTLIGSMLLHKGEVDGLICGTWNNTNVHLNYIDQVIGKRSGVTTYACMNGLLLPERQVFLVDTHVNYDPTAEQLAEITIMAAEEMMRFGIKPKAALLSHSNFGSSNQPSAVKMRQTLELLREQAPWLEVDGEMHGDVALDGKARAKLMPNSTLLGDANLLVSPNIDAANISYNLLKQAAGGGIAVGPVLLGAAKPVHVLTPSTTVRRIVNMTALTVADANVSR", "settings": "20 mM L-malate, 5 mM MnCl2, pH 7.5, 30 °C", "data": [{"smiles": "NC(=O)c1ccc[n+]([C@@H]2O[C@H](COP(=O)(O)OP(=O)(O)OC[C@H]3O[C@@H](n4cnc5c(N)ncnc54)[C@H](O)[C@@H]3O)[C@@H](O)[C@H]2O)c1", "note": "[NAD^+]", "values": [{"measurement": "NAD(P)H formation at 340 nm", "value": "NADH was the preferred cofactor for ME-2 and Mdh"}]}]}
